Source: US11504364B2, “Inhibitors of fibroblast activation protein” (Praxis Biotech LLC, priority 2018, dated 2022)

Chains of the proteins cited; added tags and fusions are not shown. Lines headed by an entry give the natural chain unless they say otherwise; changes in a name come on top.
UniProt P28843: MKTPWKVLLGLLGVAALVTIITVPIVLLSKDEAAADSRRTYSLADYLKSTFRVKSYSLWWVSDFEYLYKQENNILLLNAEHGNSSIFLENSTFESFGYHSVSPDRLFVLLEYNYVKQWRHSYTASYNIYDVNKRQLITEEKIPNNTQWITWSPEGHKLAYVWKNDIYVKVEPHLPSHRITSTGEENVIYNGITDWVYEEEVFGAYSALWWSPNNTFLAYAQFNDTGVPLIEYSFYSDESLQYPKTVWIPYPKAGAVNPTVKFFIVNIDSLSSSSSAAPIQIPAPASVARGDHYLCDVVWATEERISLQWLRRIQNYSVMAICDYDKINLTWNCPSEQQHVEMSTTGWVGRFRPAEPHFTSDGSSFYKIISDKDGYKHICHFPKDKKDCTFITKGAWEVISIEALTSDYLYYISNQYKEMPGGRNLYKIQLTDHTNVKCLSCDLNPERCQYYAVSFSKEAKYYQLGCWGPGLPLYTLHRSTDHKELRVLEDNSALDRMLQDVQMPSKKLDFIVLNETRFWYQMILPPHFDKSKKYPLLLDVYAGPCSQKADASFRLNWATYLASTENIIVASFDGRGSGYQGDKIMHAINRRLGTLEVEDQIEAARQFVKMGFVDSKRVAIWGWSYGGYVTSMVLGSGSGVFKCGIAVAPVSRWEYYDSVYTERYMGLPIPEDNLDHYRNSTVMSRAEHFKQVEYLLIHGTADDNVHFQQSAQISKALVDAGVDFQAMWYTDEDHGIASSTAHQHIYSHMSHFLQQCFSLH

Columns and labels:
[1] = system: human AML cell line MV4-11; test: Cytotoxicity assay in human leukemia cell lines (Cell-Titer Glo); conditions: MV4-11, 48 h, read-out: MV4-11 viability IC50, μM
[2] = target: recombinant mouse DPPIV (rmDPPIV) (Mus musculus (Mouse), UniProt P28843); test: DPPIV enzymatic activity assay; type: biochemical; conditions: Table 3A

Row | SMILES | IC50 [1] | IC50 [2]
1 | N#C[C@@H]1CC(F)(F)CN1C(=O)CNC(=O)c1ccnc2ccc(/C=C/c3ccc4ncccc4c3)cc12 [Compound 105] | < 3 µM | –
2 | CC(C)[C@H](N)C(=O)N1CCC[C@H]1B(O)O [Val-boroPro] | – | < 1000 nM
